## Ab-91 heavy chain CDR variants: yeast mating affinities

Source: Engelhart et al. 2022 (doi:10.1038/s41597-022-01779-4), MIT Lincoln Laboratory and A-Alpha Bio; data file from the FLAb repository.

Target peptide (SARS-CoV-2 spike, HR2 region): PDVDLGDISGINAS

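Phage display of a naive human antibody library on the peptide gave the parent. Library AAYL51 holds single substitutions and randomly drawn double and triple substitutions in the CDRs. AlphaSeq pools MATa yeast showing the antibodies with MATalpha yeast showing the peptide. Binding brings cells together so that they mate, and sequencing counts the barcode pairs among the diploids. Each replicate has its own calibration line, from reference interactions of the BCL2 family. Each pool was mated in three replicate cultures.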

The variants keep the light chain, the linker and the frameworks of Ab-91 (scFv order VL, the linker GGGGSGGGGSGGGGS, VH).
VL: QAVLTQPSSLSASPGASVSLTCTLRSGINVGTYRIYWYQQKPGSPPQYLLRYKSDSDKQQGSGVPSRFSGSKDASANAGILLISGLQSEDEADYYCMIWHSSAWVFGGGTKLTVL
VH: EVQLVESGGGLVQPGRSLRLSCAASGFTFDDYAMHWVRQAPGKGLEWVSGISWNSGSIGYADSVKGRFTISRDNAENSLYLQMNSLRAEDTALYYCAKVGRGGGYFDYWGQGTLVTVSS

Positions count from residue 1 of the parent VH; A33G puts G in place of A. This list gathers variants with a substitution at Y105 (VH, numbered from residue 1). Values are log10 of the apparent Kd in nM; lower means stronger binding. The mean shown is taken over the replicates in which the pair was detected. "no signal" marks a missing value. The strain was present, yet no cells mated with the target were sequenced in any replicate, which points to weak or no binding. The list is sorted by this average, lowest first, undetected variants last. In this assay the parent's reference entry averaged 1.86; its copy inside this library read 0.88.

A33G Y105I: 0.63 (3 of 3 replicates; controls 0 of 9).
D31Q N54S Y105T: 1.13 (3 of 3 replicates; controls 1 of 9).
G102R Y105G Y108R: 1.48 (3 of 3 replicates; controls 0 of 9).
Y32S S55A Y105A: 2.63 (3 of 3 replicates; controls 3 of 9).
S57F Y105V Y108M: 2.86 (3 of 3 replicates; controls 0 of 9).
S57H G103W Y105A: 2.87 (3 of 3 replicates; controls 2 of 9).
D62V Y105I F106L: 3.13 (1 of 3 replicates; controls 0 of 9).
M34L A61R Y105C: 3.21 (1 of 3 replicates; controls 0 of 9).
W53M S55A Y105G: 3.33 (1 of 3 replicates; controls 1 of 9).
M34P Y60I Y105P: 3.63 (2 of 3 replicates; controls 1 of 9).
D62N V64Q Y105N: 3.83 (1 of 3 replicates; controls 0 of 9).
T28N G103D Y105S: 3.98 (1 of 3 replicates; controls 3 of 9).
D62C Y105E Y108T: 4.04 (1 of 3 replicates; controls 3 of 9).
S57F Y105G Y108S: 4.08 (1 of 3 replicates; controls 6 of 9).
F29P M34C Y105Q: 4.09 (3 of 3 replicates; controls 6 of 9).
W53Y Y105C: 4.16 (3 of 3 replicates; controls 1 of 9).
M34Y G50T Y105T: 4.29 (2 of 3 replicates; controls 0 of 9).
I51Y S57Q Y105N: 4.44 (3 of 3 replicates; controls 5 of 9).
I51M Y60L Y105M: 4.47 (2 of 3 replicates; controls 2 of 9).
G56W D62P Y105S: 4.50 (3 of 3 replicates; controls 0 of 9).
S57R S63M Y105G: 4.53 (2 of 3 replicates; controls 0 of 9).
D62G Y105K: 4.56 (2 of 3 replicates; controls 2 of 9).
A33H W53F Y105A: 4.56 (3 of 3 replicates; controls 0 of 9).
G56F I58Y Y105E: 4.65 (2 of 3 replicates; controls 1 of 9).
D62G Y105I: 4.79 (1 of 3 replicates; controls 2 of 9).
H35G D62S Y105P: 4.84 (3 of 3 replicates; controls 7 of 9).
H35D G102C Y105S: 4.88 (1 of 3 replicates; controls 1 of 9).
K65S G103S Y105C: 4.91 (2 of 3 replicates; controls 5 of 9).
G100D Y105G: 5.02 (3 of 3 replicates; controls 4 of 9).
G59Y Y105P Y108Q: 5.03 (2 of 3 replicates; controls 6 of 9).
A33W M34K Y105F: 5.12 (2 of 3 replicates; controls 2 of 9).
F27C H35L Y105I: 5.16 (1 of 3 replicates; controls 3 of 9).
G26C S52D Y105T: 5.92 (3 of 3 replicates; controls 8 of 9).
G56S A61H Y105M: no signal (0 of 3 replicates; controls 0 of 9).
G59V V64H Y105G: no signal (0 of 3 replicates; controls 5 of 9).
D31H G103R Y105E: no signal (0 of 3 replicates; controls 0 of 9).
F27P S55Y Y105S: no signal (0 of 3 replicates; controls 0 of 9).
G56K V64R Y105R: no signal (0 of 3 replicates; controls 1 of 9).
S55I Y105W: no signal (0 of 3 replicates; controls 0 of 9).
D30K G50H Y105F: no signal (0 of 3 replicates; controls 1 of 9).
N54K D62V Y105H: no signal (0 of 3 replicates; controls 1 of 9).
I51R S63N Y105F: no signal (0 of 3 replicates; controls 2 of 9).
F29N S52T Y105T: no signal (0 of 3 replicates; controls 3 of 9).
D30Y S57I Y105G: no signal (0 of 3 replicates; controls 3 of 9).
G100T G104W Y105R: no signal (0 of 3 replicates; controls 1 of 9).
S63Q V99C Y105D: no signal (0 of 3 replicates; controls 0 of 9).
G100L G103H Y105P: no signal (0 of 3 replicates; controls 0 of 9).
M34W N54V Y105D: no signal (0 of 3 replicates; controls 0 of 9).
F27N Y105C: no signal (0 of 3 replicates; controls 1 of 9).
F29Q R101D Y105S: no signal (0 of 3 replicates; controls 6 of 9).

Three control strains display no target. For library AAYL51, 21% of the pairings with them gave a signal, with a median of 4.54 and one signal in twenty below 3.26, so weak values seen in few replicates may be background. The control count says in how many pairings with the empty strains this scFv gave a signal.